This is an account of results in publication PMC12200682 (PLOS One, 2025).

Read-outs that look alike come from different tables or passages of the source.

In one series the test system is SNU-16. Description: Cell viability assay, SNU-16. It counts as cell-based, human. Conditions: read-out: IC50 cytotoxicity. Here is the method: (§1) Cells were seeded into 96-well plates at 1500 cells/well for SK-BR-3, JIMT-1, and NCI-N87, 800 cells/well for HCC1954, 600 cells/well for AGS and MKN-45, 2500 cells/well for MDA-MB-468 and Capan-1, and 1000 cells/well for SNU-16. After overnight incubation, a serially diluted solution of compounds or ADCs was added. Cell viability was evaluated after 6 days using CellTiter-Glo reagent (Promega) according to the manufacturer’s instructions. Luminescence was measured by PHERAstar (BMG LABTECH).

Series [1] is described as follows: Toxicokinetics in cynomolgus monkeys. It is filed as in vivo. Here is the method: (§2) GLP toxicology and toxicokinetics studies were outsourced to Shanghai InnoStar Bio-tech Co., Ltd. Studies were approved by InnoStar’s Institutional Animal Care and Use Committee and carried out in compliance with ARRIVE guidelines. Cynomolgus monkeys were housed in stainless steel cages at the study institution. The temperature and relative humidity of the room were recorded twice a day with ranged from 18 to 26°C and 40–70%, respectively. Ventilation was constantly operated with ≥ 8 times of air changes per hour. […] Monkey maintenance feed was purchased from qualified supplier with microorganisms, heavy metals and pesticide residues tested. During the study, all animals had ad libitum access to feed and clean deionized water except during specific fasting. […] All animals were acclimated to temperature and relative humidity-controlled environment for few days before randomization. Detailed clinical observation was performed on all cynomolgus monkeys once a day during the acclimation period. All of the animal care staff were trained to maximal reduce the pain of animals. Special training such as animal handling, proper injection for treatment/anesthesia, and painless death were taught to the staff.
(§3) Clinical signs, body weight, food consumption, and clinical pathology were monitored twice a day. […] Humane endpoint criteria were observed twice a day during study to examine health and behavior. Animals were sacrificed in less than a day once reached endpoint criteria. There were no unexpected animal deaths during the studies with 16-weeks duration. All of the animals were euthanized by intravenous injection of combination of zoletil and xylazine at the end of study for targeted organ and tissue examinations to evaluate toxicity or when the following humane endpoints were reached: severe injury, severe respiratory depression, severe weight loss, persistent anorexia, significant pain or stress, progressive pain leading to weakness, and persistent or continuous twitching. Final disposal of each animal was recorded on the study records.

The subject of another series is NCI-N87 xenograft. Description: NCI-N87 mouse xenograft. It counts as in vivo, mice. The source says: (§4) Female NUNU nude mice, Beige SCID mice and Balb/c nude mice (15–18 g body weight, n = 385) were purchased from Beijing Vital River Laboratory Animal Technology Co., Ltd. In brief, NCI-N87 (5 × 10^6 cells/inoculation), JIMT-1 (4.5 × 10^6 cells/inoculation) and Capan-1 (3 × 10^6 cells/inoculation) were implanted subcutaneously into the hind flank region and allowed to grow to the appropriate size (150–250 mm^3 in average). Six to eight mice per treatment group were randomized according to the size of tumors. […] The ADCs were administered intraperitoneally at various dosages single time or every week for two weeks as described in the figure legend. Tumor volume and body weight were measured twice a week during the course of the study. […] Tumor volume of individual tumors at each time point was measured as V = 1/2 x Length x Width^2. Mice were examined daily for health condition and humane endpoint criteria. Animals were sacrificed in less than a day once criteria was reached. There were no unexpected animal deaths during the in vivo studies with 40–50-day duration. All of the mice were euthanized using inhaled carbon dioxide at the end of study or when the following humane endpoints were reached: tumor volume exceeding 2000 mm^3, body weight decreases by more than 20% of the initial weight, tumor ulceration, any sign of severe pain distress or infection.

Series [2] is described as follows: PK of ADCs in mice, intraperitoneal vs. intravenous. It counts as in vivo.
A short description of series [3]: GLP toxicology study in cynomolgus monkeys. It counts as in vivo. Conditions: 5 times. Here is the method:
as §2, §3

A further series concerns Capan-1. Description: Cell viability assay, Capan-1. It counts as cell-based, human. Conditions: Capan-1, HER2 Low; 6 days, CellTiter-Glo; read-out: IC50 cytotoxicity. Here is the method: as §1
Series [4] has as its system MDA-MB-468 cells co-cultured with SK-BR-3. Description: Bystander killing effect in SK-BR-3 / MDA-MB-468 co-culture. It counts as cell-based, human. As to conditions: co-culture with SK-BR-3; 3 days.
For series [5] the following is noted: cited from earlier work.
Series [6] in a line: Body weight in xenograft models. Conditions: NCI-N87, JIMT-1 and Capan-1 xenograft models. It is filed as in vivo, mice.
Source text: as §4

The test system of a further series is JIMT-1 xenograft. Description: JIMT-1 mouse xenograft. It counts as in vivo, mice. Conditions: 10 mg/kg i.p. single dose (Fig 2B).
For series [7] the following is noted: cynomolgus monkeys, once every 3 weeks for 3 doses; cited from earlier work.
For series [8] the following is noted: 6.4 mg/kg, cited from earlier work.
For series [9] the following is noted: 5.4 mg/kg; cited from earlier work.
The conditions of series [10]: 6.4 mg/kg; cited from earlier work.
[11] abbreviates: SNU-16, HER2 Low, 6 days, CellTiter-Glo.

The term IC50 denotes the point on the concentration scale where inhibition reaches its midpoint. As for `CC[C@@]1(O)C(=O)OCc2c1cc1n(c2=O)Cc2c-1nc1cc(F)c(C)c3c1c2[C@@H](NC(=O)[C@H](O)C1CC1)CC3` [SHR169265], the concentration for half-maximal inhibition (IC50) in the series with SNU-16 (Homo sapiens, SNU-16, 144 h) is 0.57 ± 0.19 nM.
In the case of SHR-A1811, the AUCt is 3988273 ng·days/mL in series [1] (analyte after SHR-A1811 40 mg/kg i.v. every 3 weeks, Multiple); 3.988e+06 ng·days/mL in [1] (analyte after SHR-A1811 40 mg/kg i.v. every 3 weeks, multiple doses); 3111089 ng·days/mL in series [1] (analyte after SHR-A1811 40 mg/kg i.v., Single). Besides, the TGI in the series with NCI-N87 xenograft (3 mg/kg i.p. single dose) was found to be 124%; in the series with JIMT-1 xenograft it was 80.7%. In addition, the IC50 came to 133 ± 22.3 nM in the series on SNU-16 (setting [11]), 11.3 ± 2.7 nM in the series with Capan-1 and 0.23 ± 0.05 nM in series [4]. Also, the “AUC 0-672” value in series [2] (IP @ 3mpk) came to 2037.9 ± 858.0 µg·h/mL; in series [2] (IV @ 3mpk) it was 2054.6 ± 207.8 µg·h/mL. Also, the “Body weight and food intake” value in series [3] (3 mg/kg i.v. every 3 weeks), in series [3] (10 mg/kg i.v. every 3 weeks) and in [3] (40 mg/kg i.v. every 3 weeks) was “Normal” throughout. For the same molecule, the Cardiac function entry in series [3] (3 mg/kg i.v. every 3 weeks), in series [3] (10 mg/kg i.v. every 3 weeks) and in [3] (40 mg/kg i.v. every 3 weeks) was “Normal” in each case. In addition, the “Clinical chemistry at day2” value in [3] (3 mg/kg i.v. every 3 weeks), in [3] (10 mg/kg i.v. every 3 weeks) and in series [3] (40 mg/kg i.v. every 3 weeks) was “Normal” in each case. The Clinical signs entry in series [3] (3 mg/kg i.v. every 3 weeks), in series [3] (10 mg/kg i.v. every 3 weeks) and in series [3] (40 mg/kg i.v. every 3 weeks) was “Normal” in each case. Moreover, the Hematology result in series [3] (3 mg/kg i.v. every 3 weeks) and in series [3] (10 mg/kg i.v. every 3 weeks) was “Normal” in each case. Moreover, the Mortality entry in series [3] (3 mg/kg i.v. every 3 weeks), in series [3] (10 mg/kg i.v. every 3 weeks) and in series [3] (40 mg/kg i.v. every 3 weeks) was “No report” in each case. Further, the “Target organs and tissue” value in series [3] (3 mg/kg i.v. every 3 weeks) and in series [3] (10 mg/kg i.v. every 3 weeks) was “Normal” in each case. For the same molecule, the ORR was 45.9% in series [5] (HER2-expressing/mutant non-breast solid tumor patients); 76.3% in series [5] (HER2-positive breast cancer patients, 1 to 8.0 mg/kg i.v. every 3 weeks); 60.4% in [5] (HER2 low-expressing breast cancer patients, 1 to 8.0 mg/kg i.v. every 3 weeks). Further, in series [5] (patients, 6.4 mg/kg cohort, after multiple dosing), the “AUCinf of free payload in plasma” value was 26.7 µg·days/mL. In [6], the “effect on mouse body weight” value is on record as “without effect”.
Take “Trastuzumab: HER2 antibody produced with the published amino acid sequence [reference compound]”: the TGI with NCI-N87 xenograft (6 mg/kg i.p. single dose) is 51%. In addition, the IC50 in the series with SNU-16 (setting [11]) and in the series with Capan-1 was greater than 500 nM throughout.
For T-DXd, in series [7], the HNSTD was 30 mg/kg. Also, in series [8] (breast cancer patients), the ILD incidence is 21%. Further, the “AUC inf of free payload” value in series [8] (patients) was 34.2 µg·days/mL. In series [9], the dose reduction rate is 21%, the “incidence of drug-related adverse events of grade 3 or 4” value is 45.1% and the “treatment discontinuation accounted for by ILD/pneumonitis” value is given as 8%. In addition, in series [10], the “discontinuation accounted for by ILD/pneumonitis” value is 6% and the dose interruption result is recorded as “up to 62%”.
